Data on one compound can be found in patent US7473694B2, “Pyrazolopyrimidine derivatives or pharmaceutically acceptable salts thereof” (Teijin Pharma Limited, priority 2005, dated 2009).

Chains of the proteins cited; added tags and fusions are not shown.
UniProt P49137, whole entry: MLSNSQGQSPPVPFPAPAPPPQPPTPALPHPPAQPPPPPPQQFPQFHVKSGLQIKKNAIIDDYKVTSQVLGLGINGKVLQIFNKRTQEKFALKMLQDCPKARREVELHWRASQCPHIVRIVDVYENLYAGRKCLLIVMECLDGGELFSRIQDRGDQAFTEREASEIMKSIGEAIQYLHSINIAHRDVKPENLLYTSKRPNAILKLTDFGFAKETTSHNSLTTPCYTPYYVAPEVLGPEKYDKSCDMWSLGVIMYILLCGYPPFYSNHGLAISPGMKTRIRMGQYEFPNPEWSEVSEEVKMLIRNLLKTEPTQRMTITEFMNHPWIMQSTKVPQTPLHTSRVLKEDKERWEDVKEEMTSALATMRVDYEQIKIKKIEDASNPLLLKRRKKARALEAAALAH

A value given as a limit tells only on which side of the number the result lay.

This experiment addresses recombinant human MAPKAP-K2 (Homo sapiens, UniProt P49137). Kind of experiment: Inhibition of MAPKAP-K2 enzyme activity (33P-ATP peptide substrate phosphorylation). Conditions: read-out: Activity strength (IC50 against MAPKAP-K2); recombinant human MAPKAP-K2 10 mU, room temperature 30 min, peptide substrate Lys-Lys-Leu-Asn-Arg-Thr-Leu-Ser-Val-Ala. As to the method:
General Measurement Method for Determining Inhibition of MAPKAP-K2 Enzyme Activity
(Preparation of Solutions of Compounds)
Each compound was dissolved to DMSO to prepare a solution with a concentration of 20 mmol/L and this solution was stored at −20° C. This stock solution was diluted with DMSO successively to prepare solutions with 200-fold concentrations of a necessary range. These solutions were further diluted with water at a ratio of 1:20 to prepare solutions with 10-fold concentrations of a necessary range. Each of these solutions (5 μL) was used for each reaction in 50 μL-scale. Through the dilution series of all compounds, the final DMSO concentration was kept at 0.5%. […]
To a DMSO solution (5 μL) containing a test compound at 5%, a solution (25 μL) containing a peptide substrate [peptide substrate […], ATP 20 μmol/L, Tris buffer 60 mmol/L (pH 7.5), EGTA 0.2 mmol/L, β-mercaptoethanol 0.2%, magnesium acetate 20 mmol/L, [γ-33P]ATP 0.1 μCi (specific radioactivity ca. 110 TBq/mmol)] was added. […] After the plate was dried, 30 μL of MicroScint™-O (Perkin-Elmer) was added here, and the radioactivity (cpm) was measured on a scintillation counter to determine the inhibitory activity. […]

Usually IC50 stands for the midpoint of a concentration-inhibition curve. As to `CCOc1ccc(Nc2c3c(nc4ccnn24)N(C2CCCNC2)CC3)cc1` (stereo not shown), the IC50 was less than 10 µM.
